The values below come from patent US20050182044A1, “Combinatorial therapy with an acetylcholinesterase inhibitor and (3aR)-1,3a,8-trimethyl-1,2,3,3a,8,8a-hexahydropyrrolo[2,3,-b]indol-5-yl phenylcarbamate” (priority 2004, published 2005).

The chains behind the UniProt entries cited, without tags or fusion partners. Residues count along the entry.
UniProt P22303, 32-617 isoform P22303-2 limits assumed: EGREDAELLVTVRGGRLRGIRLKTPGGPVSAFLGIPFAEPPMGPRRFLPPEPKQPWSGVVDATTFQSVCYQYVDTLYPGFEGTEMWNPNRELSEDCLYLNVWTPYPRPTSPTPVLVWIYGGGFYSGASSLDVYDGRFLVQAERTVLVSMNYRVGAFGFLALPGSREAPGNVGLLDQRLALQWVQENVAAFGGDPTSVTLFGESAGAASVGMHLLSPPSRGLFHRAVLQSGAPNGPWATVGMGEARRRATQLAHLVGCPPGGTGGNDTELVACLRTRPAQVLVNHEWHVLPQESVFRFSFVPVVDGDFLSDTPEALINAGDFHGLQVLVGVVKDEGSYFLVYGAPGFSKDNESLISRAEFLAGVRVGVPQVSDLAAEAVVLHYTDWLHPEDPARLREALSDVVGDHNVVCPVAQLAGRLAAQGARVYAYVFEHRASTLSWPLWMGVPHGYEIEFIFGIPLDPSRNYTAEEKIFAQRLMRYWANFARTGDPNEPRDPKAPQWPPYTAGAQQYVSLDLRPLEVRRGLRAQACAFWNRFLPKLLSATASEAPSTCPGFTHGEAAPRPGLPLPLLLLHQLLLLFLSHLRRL

SMILES strings stand for the structures.

The target of one assay is AChE (Homo sapiens, UniProt P22303). In words: biochemical. Conditions: IC50 Value AChE, RBC/plasma.
Assay [1] has as its target T1, acetylcholinesterase (AChE) (Homo sapiens, UniProt P22303).
T1 construct: host or cells: human erythrocytes
Conditions: human erythrocyte AChE, al-Jafari et al. (1998) per footnote; read-out: IC50 for AChE inhibition; cited from earlier work.

With `CN1CC[C@@]2(C)c3cc(OC(=O)Nc4ccccc4)ccc3N(C)C12` (single isomer, unassigned; (-)) [(−)-phenserine], the figures for the concentration for half-maximal inhibition (IC50) (against AChE; in assay [1]) were 22 ± 1 nM and approximately 22 nM, respectively.
